Laboratory results from patent US11872324B2, “Materials and methods for tissue regeneration” (The University Court of the University of Glasgow, priority 2015, dated 2024).

Columns and labels:
[1] = test system: Human bone marrow mesenchymal stem cells (hMSCs); assay: Osteogenic differentiation of hMSCs (qPCR and immunofluorescence for osteocalcin, osteonectin); assay type: cell-based; details: 14 days, BMP-2 adsorbed on FN fibrils on PEA vs soluble GF
Description: (§1) Human bone marrow mesenchymal stem cells (hMSCs) from Promocell were maintained in basal media (αMEM, 10% FBS, 1% P/S, 1% fungizone, 2 mM L-glutamine, 1 ng/ml FGF-2) at 37° C. with 5% CO2. Cells were seeded onto the materials at 10^4 cells/cm2 using seeding media (DMEM high glucose, 1% P/S, 1% FBS,) and media were changed twice a week. For all cultures the first 2 hours (initial cell adhesion) were in absence of serum and GF. Cells were used at passages P0-P3. Each experiment was performed in triplicate.
After 14 days of culture cells were washed in DPBS and fixed with 4% formaldehyde in DPBS at 37° C. for 15 minutes. Afterwards, the samples were rinsed in DPBS and a permeabilising buffer (10.3 g sucrose, 0.292 g NaCl, 0.06 g MgCl2, 0.476 g Hepes buffer, 0.5 mL Triton X, in 100 mL PBS, pH 7.2) was added at 4° C. for 5 minutes. The samples were then saturated with 1% BSA/DPBS at 37° C. for 5 minutes. […] A Zeiss fluorescence microscope was used for imaging.
Cells were cultured on materials for 14 days. Following the same procedure as for SMAD protein expression, osteogenesis differentiation was analysed to assess the expression of osteocalcin (OCN) and osteonectin (ON) using GAPDH to normalize gene expression.

SMAD-1, SMAD-5 = assay: SMAD expression by qPCR in hMSCs; assay type: cell-based, human; details: 5 days, absorbed or soluble format
Description: as §1
RNA extraction was performed after 5 days of cell culture. Cells were lysed and total RNA extracted using a Qiagen RNeasy micro kit (DNase treatment included) and the quantity and integrity of the RNA was measured with NanoDrop (ThermoScientific). Real-time qPCR was carried out and analysed to assess the expression of SMAD-1, SMAD-5 and GAPDH. Briefly, RNA samples were reverse transcribed using the QuantiTect Reverse Transcription (Applied Biosystems). Real-time qPCR was carried out using SYBR® Select Master Mix (Life Technologies) and the 7500 Real Time PCR system from Applied Biosystems. GAPDH served as the house-keeping gene, and expression for the genes of interest was normalized to GAPDH expression. […] The comparative cycle-threshold method was used for quantification of gene expression. The relative transcript levels were expressed as mean±standard deviation (n=3 for each group).

ERK 1/2 = assay: Phosphorylated ERK 1/2 phospho-ELISA in hMSCs; assay type: cell-based, human; details: 45 min, BMP-2 sequestered on FN fibrils vs soluble BMP-2 in medium
Description: as §1
Phosphorylated ERK 1/2 was quantified using phospho-ELISA kits. Briefly, ELISA plates were coated with a capture antibody for ERK 1/2 and then incubated with cell lysates after 45 minutes of cell culture. Phosphorylated states were detected with an anti-phospho-tyrosine antibody and normalised to a standard according to manufacturer instructions (DYC1018B, R&D Systems).

[2] = Release/stability of adsorbed BMP-2 by sandwich ELISA; assay type: physicochemical; details: from FN-coated PEA and PMA surfaces, after 14 days
Description: Both on bare or FN coated surfaces, the amount of non-adsorbed growth factor remaining in the supernatant was measured via a sandwich ELISA (DY355, R&D) following manufacturer instructions. The standard curve was calculated using a 4-PL curve-fit (Prism). For stability studies, the release of the BMP-2 was measured at 10 different time points (2 h, 1, 2, 3, 4, 5, 6, 7, 11, 14 days) using the same sandwich ELISA.

[3] = test system: Human bone marrow mesenchymal stem cells (hMSCs); assay: Alkaline phosphatase staining of hMSCs; assay type: cell-based; details: 28 days, BMP-2 bound on FN on PEA vs soluble administration
Description: as §1
Cells were cultured on materials for 28 days. Noggin (50 ng/ml) was added in a set of samples and phosphate deposition was analysed by an Alkaline Phosphatase assay (Sigma, 86C-1KT). Cells were fixed with the fixative solution (citrate-acetone-formaldehide solution) at RT for 30 s. Afterwards, samples were stained with the alkaline-dye mixture and incubated at RT in darkness for 15 min. Samples were counterstained for 2 minutes with neutral red solution and rinsed in tap water.

[4] = test system: integrin β1 and BMP-2 receptor BMPRIA; assay: Co-immunoprecipitation of integrin β1 and BMPRIA; assay type: cell-based, human; details: hMSCs, 45 min; BMP-2 presented via the FN network assembled on PEA
Description: as §1
After 45 minutes of cell culture, cell lysates (RIPA buffer) were used to perform immunoprecipitation of integrin β1 and BMP-2 receptor BMPRIA. 15 μg of protein were collected using NanoDrop (ThermoScientific). First, an integrin β1 antibody (Abcam, 183666, 10 ul/reaction) was used together with protein A-agarose beads (SantaCruz Biotechnology, sc-2001). Then, after denaturation and elution of beads, samples were run in NuPAGE 4-12% bis-tris gels (Life Technologies). A mouse BMPRIA antibody was used to probe the membrane (Abcam, 166707, 1:1000). An anti-mouse secondary antibody was used (SantaCruz Biotechnology, sc-2031, 1:5000). The enhanced chemiluminescence detection system (GE Healthcare) was used prior to exposing the blot to X-ray.

SMAD-1, SMAD-1/5 = assay: SMAD phosphorylation western blot in hMSCs; assay type: cell-based, human; details: 45 min
Description: as §1
Cell lysates (RIPA buffer) after 45 minutes of culture were used. 10 μg of proteins were collected per sample. Western blot assays were run in denaturalising conditions for SMAD-1, SMAD-1/5 and GAPDH. NuPAGE 4-12% bis-tris gels were purchased from LifeTechnologies. pSMADDs antibodies (pSMAD-1 & pSMAD-1/5) were obtained from Cell Signaling Technology (12656, 1:1000). As secondary antibody an antirabbit IgG antibody (Cell Signaling Technology, #7074, 1:2000) was used. A substrate for sensitive immunodetection system (Novex, Life Technologies) was used prior to exposing the blot to X-ray. Protein expression was quantified by image analysis using ImageJ.

In the case of “BMP-2: bone morphogenetic protein growth factor from recombinant sources (R&D Systems)”, the “osteocalcin and osteonectin expression (transcription and protein levels)” value [1] is reported as “Significantly higher”, the “Smad 1 and 5 transcript level” value (SMAD-1, SMAD-5) is reported as “not affected” and the “phosphorylation of ERK1/2” value (ERK 1/2) is reported as “higher”. For the same substance, the BMP-2 released [2] was “less than 10%”, the “alkaline phosphatase (ALP) activity” value [3] was “higher” and the “co-immunoprecipitation of integrin β1 and BMP-2 receptors” value [4] was “clusters of β1 integrins and BMP-2 receptors were formed”. For the same substance, the “Smad 1 phosphorylation” value (SMAD-1, SMAD-1/5; BMP-2 bound to FN assembled on PEA) was “significantly increased” and the “Phosphorylation of Smads 1/5” value (SMAD-1, SMAD-1/5; BMP-2 sequestered on FN) was “significantly higher”.
